## Melting point values, as collected for the OPERA models

From the experimental data distributed with OPERA 2.9.

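OPERA's authors assembled the values from existing databases and did not measure them anew. A listed value is a point estimate from one report or more. Method and conditions are not stated for these values. Where a salt, mixture or single isomer is drawn, the source does not say that exactly this form was tested. Some upstream entries may be estimates or bounds without being marked so.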

Melting points are in °C. "–" marks a cell with nothing listed here. The databases behind each value are named after "via".

compound,name,melting point (°C),via
O=C(Cl)COc1ccc(Cl)cc1Cl,"(2,4-Dichlorophenoxy)acetyl chloride",5.8,eChemPortal
C=CCn1c(=S)[nH]c2cc(Cl)ccc2c1=O,3-Allyl-7-chloro-2-mercapto-3H-quinazolin-4-one,140,OCHEM
COc1ccc2c(c1)CC(C(=O)O)CO2 (configuration not stated),6-Methoxychroman-3-carboxylic acid,121,OCHEM
CC1(CCc2ccc(O)cc2)NC(=O)NC1=O (configuration not stated),"5-[2-(4-hydroxyphenyl)ethyl]-5-methylimidazolidine-2,4-dione",193,OCHEM
O=C(O)Cc1ccc(-n2cccc2)cc1,"Acetic acid, (p-(1-pyrrolyl)phenyl)-",172,OCHEM
COC(=O)c1ccc(C)c(S(=O)(=O)Cl)c1,Methyl 3-(chlorosulfonyl)-4-methylbenzoate,46,OCHEM
CNc1nc(C)cc(C)c1C#N,"4,6-dimethyl-2-(methylamino)nicotinonitrile",148,OCHEM
O=C([O-])c1cc(S(=O)(=O)[O-])ccc1/N=N/[C-](/N=N/c1cc(S(=O)(=O)[O-])cc(Nc2nc(Cl)nc(Nc3cc(S(=O)(=O)[O-])c(Nc4nc(Cl)nc(Nc5cccc(S(=O)(=O)[O-])c5)n4)cc3S(=O)(=O)[O-])n2)c1[O-])c1ccccc1.[Cu+2].[H+].[Na+].[Na+].[Na+].[Na+].[Na+],–,170,eChemPortal
CC(=O)OCCCCCCC(C)C,"Acetic acid, isononyl ester",-26,eChemPortal
COc1cc(OC)nc(NC(=O)Oc2ccccc2)n1,–,120.8,eChemPortal
Cl.Cl.N=C(N)Nc1nc(CSC(=N)N)cs1,–,185,eChemPortal
NC(=O)c1ccc(NC(=O)c2ccc([N+](=O)[O-])cc2)cc1,N-(4-(Aminocarbonyl)phenyl)-4-nitrobenzamide,321,eChemPortal
CCc1cc(C)cc(CC)c1Nc1ccc(Nc2c(CC)cc(C)cc2CC)c2c1C(=O)c1ccccc1C2=O,–,191.9,eChemPortal
Nc1ccc(OCC(F)(F)F)cc1,"4-(2,2,2-trifluoroethoxy)aniline",67,OCHEM
CCC(=O)c1ccc(O)cc1,Paroxypropione,149,OCHEM
CC(C)[C@@H]1CC[C@@H](C)C[C@H]1OC(=O)[C@H](C)O,Menthyl lactate,41.8,eChemPortal
COC(=O)c1ccc(C(=O)O)s1,5-(methoxycarbonyl)thiophene-2-carboxylic acid,195,OCHEM
CNC(=O)c1c(I)c(C(=O)NCC(=O)Nc2c(I)c(C(=O)O)c(I)c(C(=O)NCCO)c2I)c(I)c(N(C)C(C)=O)c1I,Ioxaglic acid,254,PubChem
Cc1ccc(C(N)=S)c(C)c1,"2,4-dimethylbenzenecarbothioamide",61,OCHEM
CCCCC[C@@H]1CCC[C@@H]1O (relative stereo),cis-2- Pentylcyclopentanol,-22,eChemPortal
FC(F)(F)C1(F)C(F)(F)C(F)(F)C1(F)C(F)(F)F (configuration not stated),"Perfluoro-1,2-dimethylcyclobutane",-32,ChemicalBook
CCCS(=O)(=O)Nc1ccc(F)c(C(=O)c2c[nH]c3ncc(-c4ccc(Cl)cc4)cc23)c1F,Vemurafenib,272,PubChem
Cc1c(C(=O)O)cnn1-c1ccc(Br)cc1,1-(4-bromophenyl)-5-methyl-1H-pyrazole-4-carboxylic acid,212,OCHEM
O=C(O)CCC(=O)c1ccc2ccccc2c1,4-(2-Naphthyl)-4-oxobutanoic acid,173,OCHEM
CC(C)(c1ccccc1)c1ccc(OS(=O)(=O)c2cc([N+]#N)c([O-])c3ccccc23)cc1,–,120,eChemPortal
COC(=O)C(c1ccccc1Oc1cc(Cl)ncn1)C(OC)OC (configuration not stated),–,86,eChemPortal
Brc1cccc2c1-c1ccccc1C21c2ccccc2-c2ccccc21,–,156.7,eChemPortal
O=[N+]([O-])c1c(Cl)nc2ccccn12,"2-chloro-3-nitroimidazo[1,2-a]pyridine",171,OCHEM
CN(C)CCN(Cc1cccs1)c1ccccn1.Cl,Methapyrilene hydrochloride,162.2,PubChem
CC(Oc1ccc2c(c1)CCC2)C(=O)O (configuration not stated),"2-(2,3-dihydro-1H-inden-5-yloxy)propanoic acid",104,OCHEM
CCOC(=O)c1cnn2c1nc(Cl)c1ccccc12,"ethyl 5-chloropyrazolo[1,5-a]quinazoline-3-carboxylate",130,OCHEM
COc1ccccc1C(=O)CC#N,2-Methoxybenzoylacetonitrile,73,OCHEM
Cc1nn(-c2ccccc2)c(C)c1N,"3,5-dimethyl-1-phenyl-1H-pyrazol-4-amine",62,OCHEM
O=C(O)CCSc1ccccc1Cl,3-(2-Chloro-phenylsulfanyl)-propionic acid,97,OCHEM
COc1ccccc1NC(=O)c1ccc(N)cc1,4-amino-N-(2-methoxyphenyl)benzamide,163,OCHEM
Cn1c(SCC(=O)O)nc2ccccc21,[(1-Methyl-1H-benzimidazol-2-yl)sulfanyl]acetic acid,157,OCHEM
Nc1cc(F)c(F)cc1N,"1,2-Diamino-4,5-difluorobenzene",128,OCHEM
Cc1ccc(C(=O)C(=O)c2ccccc2)cc1C,"1-(3,4-dimethylphenyl)-2-phenylethane-1,2-dione",64,OCHEM
O=C1NC(=O)C2(CCCc3sccc32)N1 (configuration not stated),–,268,OCHEM
CNc1ccc(N(CCO)CCO)cc1[N+](=O)[O-],HC Blue 1,102.8,PubChem
O=c1nn[nH]n1-c1cccs1,"1-thien-2-yl-1,4-dihydro-5H-tetrazol-5-one",152,OCHEM
O=C(Nc1ccc(F)cc1)c1cccc(Oc2cccc(C(F)(F)F)c2)n1,Picolinafen,107,OCHEM
N#Cc1ccc(OCCBr)cc1,4-(2-Bromoethoxy)benzonitrile,57,OCHEM
N#Cc1ccc(Nc2nccc(=O)[nH]2)cc1,"4-[(6-Oxo-1,6-dihydropyrimidin-2-yl)amino]benzonitrile",322.8,eChemPortal
Brc1cc(Br)ncn1,"4,6-Dibromopyrimidine",50.5,OCHEM
NC(=O)c1ccc(Cl)cc1N,2-Amino-4-chlorobenzamide,180,OCHEM
COc1ccc(C=NO)cc1OCc1ccccc1,4-Methoxy-3-(phenylmethoxy)benzaldehyde oxime,76,OCHEM

The last 5 entries again:

compound,name,melting point (°C),via
N#Cc1ccc(OCCBr)cc1,4-(2-Bromoethoxy)benzonitrile,57,OCHEM
N#Cc1ccc(Nc2nccc(=O)[nH]2)cc1,"4-[(6-Oxo-1,6-dihydropyrimidin-2-yl)amino]benzonitrile",322.8,eChemPortal
Brc1cc(Br)ncn1,"4,6-Dibromopyrimidine",50.5,OCHEM
NC(=O)c1ccc(Cl)cc1N,2-Amino-4-chlorobenzamide,180,OCHEM
COc1ccc(C=NO)cc1OCc1ccccc1,4-Methoxy-3-(phenylmethoxy)benzaldehyde oxime,76,OCHEM